pEC50: −log10 of the molar value.
Test system: Toxoplasma gondii
Experiment: microbe, parasite or virus in culture
Conditions: 44 h

COc1ccc2cc(-c3nn(CC4CCNCC4)c4ncnc(N)c34)ccc2c1
pEC50: 6.39
